The text below walks through data of paper PMC12069643, “Structural insights into the selective recognition of RF-amide peptides by neuropeptide FF receptor 2” (EMBO Reports, 2025).

Sequences of proteins named here, by UniProt entry; tags and fusion partners are left off. A change or cut given only in a name is not applied to a line headed by its entry.
UniProt Q9GZQ6: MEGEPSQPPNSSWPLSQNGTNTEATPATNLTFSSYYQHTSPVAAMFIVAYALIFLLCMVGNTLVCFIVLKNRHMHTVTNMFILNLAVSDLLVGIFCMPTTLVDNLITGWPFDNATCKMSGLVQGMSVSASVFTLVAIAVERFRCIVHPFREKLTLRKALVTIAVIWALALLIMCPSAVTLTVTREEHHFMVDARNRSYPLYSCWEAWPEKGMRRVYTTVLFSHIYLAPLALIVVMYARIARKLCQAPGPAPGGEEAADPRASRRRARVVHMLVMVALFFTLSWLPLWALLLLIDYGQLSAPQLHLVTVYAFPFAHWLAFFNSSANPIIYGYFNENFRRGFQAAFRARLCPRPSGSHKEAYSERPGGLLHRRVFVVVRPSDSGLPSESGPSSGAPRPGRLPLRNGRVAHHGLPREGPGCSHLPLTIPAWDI

This test concerns the target T1, human NPFFR1 (Homo sapiens, UniProt Q9GZQ6).
T1 construct: expressed in transfected cells; host or cells: HEK293T (pcDNA3.1 NPFFR1)
Put plainly: GloSensor forskolin-stimulated cAMP assay, NPFFR1 wild-type. Conditions: HEK293T, 0.5 μM forskolin, three independent experiments. It is filed as cell-based.

The molecule `CC(C)C[C@H](NC(=O)[C@H](CC(N)=O)NC(=O)[C@@H]1CCCN1C(=O)[C@@H](N)C(C)C)C(=O)N1CCC[C@H]1C(=O)N[C@@H](CCC(N)=O)C(=O)N[C@@H](CCCNC(=N)N)C(=O)N[C@@H](Cc1ccccc1)C(N)=O` [NPVF] had an EC50 of 2 nM.
